SMILES strings stand for the structures.

This data set concerns SW620 human colon carcinoma xenograft. Description: In vivo antitumor efficacy with temozolomide, SW620 xenograft. To be noted: 10 mg/kg compound + 68 mg/kg temozolomide QD×5.

Take `CNCc1ccc(-c2[nH]c3cc(F)cc4c3c2CCNC4=O)cc1`: the toxicity result is recorded as “toxic”.
